One sequence from US20080146500A1, “Selective Vpac2 Receptor Peptide Agonists” (priority 2004, published 2008) can be followed below.

By UniProt entry, the sequences of proteins in these tests, tags left out. Residues count along the entry.
UniProt P30083, 31-459: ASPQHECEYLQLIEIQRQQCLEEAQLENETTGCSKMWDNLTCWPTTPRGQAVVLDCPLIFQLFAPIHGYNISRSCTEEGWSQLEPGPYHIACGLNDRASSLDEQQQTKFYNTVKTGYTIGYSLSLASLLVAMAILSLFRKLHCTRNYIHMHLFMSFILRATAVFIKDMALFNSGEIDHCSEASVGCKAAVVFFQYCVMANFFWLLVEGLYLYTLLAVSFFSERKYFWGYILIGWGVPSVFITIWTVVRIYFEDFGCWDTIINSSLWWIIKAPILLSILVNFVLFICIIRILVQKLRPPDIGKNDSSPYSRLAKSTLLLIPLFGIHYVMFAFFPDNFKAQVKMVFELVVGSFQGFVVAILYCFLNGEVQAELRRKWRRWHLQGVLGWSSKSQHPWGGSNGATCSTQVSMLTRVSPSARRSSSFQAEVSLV

The target of one experiment is T1, rat VPAC1 receptor (Rattus norvegicus, UniProt P30083).
T1 construct: expressed in transfected cells; host or cells: CHO-PO cells, transient
Description: Rat VPAC1 in vitro potency (cAMP generation, DiscoveRx) in transiently transfected CHO-PO cells. In kind it is cell-based. Conditions: CHO-PO cells transiently transfected with rat VPAC1; read-out: rVPAC1 in vitro potency (cAMP generation) EC50. As for the experimental part: (§1) Rat receptor selectivity is estimated by comparing functional potency (cAMP generation) in CHO-PO cells transiently expressing rat VPAC1 or rat VPAC2 receptors. CHO-PO cells transiently expressing rat VPAC1 or VPAC2, are seeded with 10,000 cells/well three days before the assay. The cells are kept in 200 μL culture medium. […] The stimuli are present for 30 minutes. The assay buffer is then gently removed.

In a further experiment the target is T2, rat VPAC2 receptor (Rattus norvegicus, UniProt P35000).
T2 construct: expressed in transfected cells; host or cells: CHO-PO cells, transient
T2 sequence (P35000 23-437): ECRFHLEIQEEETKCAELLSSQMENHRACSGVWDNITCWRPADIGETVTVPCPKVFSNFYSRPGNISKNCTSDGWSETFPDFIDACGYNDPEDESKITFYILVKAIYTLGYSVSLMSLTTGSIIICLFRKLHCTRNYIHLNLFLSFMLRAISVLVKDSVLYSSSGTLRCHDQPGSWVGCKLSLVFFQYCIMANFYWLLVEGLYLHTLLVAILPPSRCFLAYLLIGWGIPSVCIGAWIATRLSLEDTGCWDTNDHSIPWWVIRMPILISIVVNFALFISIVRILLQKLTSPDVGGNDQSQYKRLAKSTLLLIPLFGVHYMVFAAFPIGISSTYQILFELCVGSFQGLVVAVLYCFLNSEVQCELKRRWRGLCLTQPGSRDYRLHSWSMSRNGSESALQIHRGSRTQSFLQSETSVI
Description: Rat VPAC2 in vitro potency (cAMP generation, DiscoveRx) in transiently transfected CHO-PO cells. In kind it is cell-based. Conditions: CHO-PO cells transiently transfected with rat VPAC2; read-out: rVPAC2 in vitro potency (cAMP generation) EC50. As for the experimental part: as §1

With “HSDAYFTDNYTRLRKQMAVKKYLNSILN [VIP, reference compound]”, the EC50 on rat VPAC1 receptor amounted to 0.015 nM; on rat VPAC2 receptor, 0.67 nM.
